Source: US20240368178A1, “IMIDAZOCYCLIC COMPOUND AND APPLICATION THEREOF” (DONGBAO PURPLE STAR (HANGZHOU) BIOPHARMACEUTICAL CO., LTD., priority 2021, published 2024)

Sequences of proteins named here, by UniProt entry; tags and fusion partners are left off. Residues count along the entry.
UniProt P43220, 24-463 limits assumed: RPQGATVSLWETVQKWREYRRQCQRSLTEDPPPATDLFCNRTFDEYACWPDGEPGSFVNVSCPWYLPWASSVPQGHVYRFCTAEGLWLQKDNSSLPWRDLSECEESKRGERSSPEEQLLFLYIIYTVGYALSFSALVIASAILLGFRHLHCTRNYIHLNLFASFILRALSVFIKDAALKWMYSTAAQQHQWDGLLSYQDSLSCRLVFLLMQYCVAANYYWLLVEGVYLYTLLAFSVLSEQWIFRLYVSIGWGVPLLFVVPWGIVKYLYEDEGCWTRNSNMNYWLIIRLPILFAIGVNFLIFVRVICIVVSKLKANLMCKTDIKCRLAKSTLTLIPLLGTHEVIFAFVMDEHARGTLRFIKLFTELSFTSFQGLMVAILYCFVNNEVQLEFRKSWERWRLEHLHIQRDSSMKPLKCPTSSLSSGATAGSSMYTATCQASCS

These molecules were tested against Human-GLP-1 receptor (Homo sapiens (Human), UniProt P43220) (assay: In vitro cell activity assay (cAMP, HEK293 GLP-1 cells)). Details: read-out: Human-GLP-1, EC50, cAMP detection.
Protocol: Experimental Example 1: In Vitro Cell Activity Assay
The host cell HEK293 for GLP-1 was constructed by WuXi AppTec (Shanghai) Co., Ltd.
cAMP Detection Kit, Cisbio (Cat #62AM4PEJ); 1M HEPES, Invitrogen (Cat #15630-106); 1×HBSS, Invitrogen (Cat #14025); BSA, Sigma (Cat #B2064); IBMX, Sigma (Cat #I5879); Exenatide, Hao Yuan (HY-13443A).
The compounds were prepared into a working solution with a concentration of 30 μM using DMSO. In this assay, each sample was used in an amount of 5 μL.
• 24.5 mL of Hanks Buffer Saline Solution (HBSS), final concentration: lx; • 125 μL of HEPES 1M, final concentration: 5 mM; • 333 μL of 7.5% BSA Solution, final concentration: 0.1%; • 25 μL of IBMX 500 mmol/L, final concentration: 0.5 mmol/L.
Preparation of cAMP assay reagent: 250 μL of cAMP-D2 and 250 μL of anti-cAMP cryptate reagent were added to 4 mL of lysis buffer and mixed gently.
The compound to be tested was diluted 3-fold at 10 points with a starting concentration of 30 μM, and the dilution was completed using Bravo.
Exenatide, used as a control compound, was diluted 3-fold at 10 points with a starting concentration of 500 nM, and the dilution was completed using Bravo.
• 1) 100 nL of compound was transferred to an OptiPlate-384 plate using Echo. • 2) The OptiPlate-384 plate was centrifuged at 1000 rpm for 5 seconds.
• 1) A GLP-1 cell cryopreservation tube was rapidly thawed in a 37° C. water bath. • 2) The cell suspension was transferred to a 15 mL Transfer centrifuge tube and gently rinsed with 10 mL of HBSS. • 3) The centrifuge tube was centrifuged at 1000 rpm for 1 minute at room temperature. • 4) The supernatant was discarded. • 5) The cells at the bottom were gently dispersed, then rinsed with 10 mL of HBSS, centrifuged to sedimentation, and finally resuspended in the experimental buffer. • 6) The cell density and activity were measured using Vi-cell. • 7) The concentration of GLP-1 cells was diluted to 2.0*105/mL with the experimental buffer. • 8) […] of the diluted cell suspension was transferred to the OptiPlate-384 plate. • 9) The plate was incubated at room temperature for 30 minutes.
• 1) 10 μL of 800 nM gradient-diluted cAMP standard was added to the empty wells of the OptiPlate-384 plate. • 2) 10 μL of cAMP assay reagent was added. • 3) The OptiPlate-384 plate was covered with TopSeal-A film and incubated for 60 minutes at room temperature.
TopSeal-A was removed and the result was read in EnVision.

EC50 [nM] | SMILES
1.2 | CC1(c2ccc(Cl)cn2)Oc2cccc(C3=CCN(Cc4nc5sc(C(=O)O)cc5n4C[C@@H]4CCO4)CC3)c2O1 (single isomer, unassigned)
4.81 | Cn1ccc(C2(C)Oc3cccc(N4CCC(Cc5nc6sc(C(=O)O)cc6n5C[C@@H]5CCO5)CC4)c3O2)n1 (single isomer, unassigned)
1.49 | O=C(O)c1cc2c(nc(CN3CCC(c4cccc5c4OCC(c4ccc(Cl)cc4)O5)CC3)n2C[C@@H]2CCO2)s1 (single isomer, unassigned)
2.9 | O=C(O)c1cc2c(nc(CN3CCC(c4cccc5c4OCC(c4ccc(Cl)cn4)O5)CC3)n2C[C@@H]2CCO2)s1 (single isomer, unassigned)
